The source of these data is patent publication US20160303095A1, “METHODS OF TREATING HEPATITIS B VIRUS” (Gilead Sciences, Inc., priority 2015, published 2016).

For orientation: CC50 means the concentration at which the toxic effect on the cells reaches its halfway point. A higher CC50 goes with better tolerance by the cells.

A short description of the data set: Alamar Blue cell viability assay. The conditions noted are these: human; PHH. Type of data set: cell-based. Here is the method:
Alamar Blue cell viability reagent (Cat#DAL1100 Life Technologies, Chicago, Ill.) was diluted 1 to 10 in Maintenance Media and added to the cells. Cells were incubated for 4 h at 37° C. and the fluorescence signal, which is proportional to the number of live cells, was read using a fluorimeter with excitation/emission spectra set at 560/590 nm, respectively. Data were converted into percentages of the untreated control and non-linear regression was performed to calculate CC50 values.
PHH were plated in collagen coated tissue culture plates in Plating Media and after 4-hour incubation at 37° C., cells were switched to Maintenance Media. On the next day, the cells were infected with 500 genome equivalents per cell of Genotype-A clinical isolate 21P (ProteoGenex, Culver City, Calif.) in 100 μl Maintenance Media supplemented with 4% PEG 8000 (Cat#V3011 Promega, Madison, Wis.). After an overnight incubation the inoculum was removed and the cells were washed three times with William's Media E and maintained in Maintenance Media. […] Following the transfection, the cells were incubated at 37° C. in a humidified incubator and media was changed every 3-4 days. The assay was terminated on day 14 post infection and cell viability was assessed by Alamar Blue. […]
Background: Alamar Blue is a resazurin reagent that responds to reducing activity.

Turning to `O=C(O)c1ccc(O)c2ncccc12` [Example 2, 8-HQ-5-COOH, reference compound], the CC50 is no less than 100 µM.
